For data set [1] the following is noted: mice, i.p.
Data set [2] can be described thus: Subcutaneous Metrazol Seizure Threshold Test (sc Met) in mice. To be noted: Phase V, i.p.

The structures appear in SMILES notation.

As for `CCC1(c2ccccc2)C(=O)NC(=O)NC1=O` [Phenobarbital, phenobarbital], the “Time of Test / time of peak effect (TPE), Rotorod” value in data set [1] is recorded as 1/2. In addition, in data set [2], the “effectiveness by the sc Met test” value was “effective against sc Met, sc Bic, and sc Pic in nontoxic doses”.

The values above are taken from US4618681A, “Aryl substituted 1H-4,5-dihydro-1,2,3-triazoles as anticonvulsants” (priority 1984, dated 1986).
